These results are taken from patent US11078214B2, “Monocyclic thieno, pyrido, and pyrrolo pyrimidine compounds and methods of use and manufacture of same” (Duquesne University of the Holy Spirit, priority 2015, dated 2021).

The subject of one experiment is MDA-MB-435 cancer cells. Put plainly: Antiproliferative sulforhodamine B (SRB) assay in MDA-MB-435 cells. The conditions noted are these: read-out: IC50 MDA-MB-435; Section V Table 2. In kind it is cell-based, human. Background: The SRB assay estimates cell density from bound dye.
Another experiment concerns purified tubulin. Description: Inhibition of the assembly of purified tubulin. The conditions noted are these: read-out: Inhibition of tubulin assembly IC50 (μM) ± SD; Section V Table 3. In kind it is biochemical.
Experiment [1] deals with tubulin (colchicine site). Description: Inhibition of [3H]colchicine binding to tubulin. The note with it: 5 μM inhibitor.
The subject of a further experiment is cellular microtubules. Description: Cellular microtubule depolymerization (Section V). In kind it is cell-based. The conditions noted are these: read-out: EC50 Microtubule depolymerization; Section V Table 2; μM.

Regarding `CN(c1ccccc1)c1ccc2nc(N)nc(N)c2n1`, the results for the IC50 in the experiment on MDA-MB-435 cancer cells and with purified tubulin were 84.4 nM and 1.7 µM, respectively. Also, the “Inhibition of colchicine binding % Inhibition ± SD” value in experiment [1] worked out at 84 ± 2%.

As to `CCCN(c1ccccc1)c1ccc2nc(N)nc(N)c2n1`, the concentration for a half-maximal effect (EC50) (commonly the concentration at which the effect is half-maximal) in the experiment on cellular microtubules was above 10 µM.

In the case of `Nc1nc(N)c2nc(Nc3ccc(OC(F)(F)F)cc3)ccc2n1`, the IC50 (as a rule, the point on the concentration scale where inhibition reaches its midpoint) in the experiment on MDA-MB-435 cancer cells is 685 nM; in the experiment on purified tubulin it was 8.4 µM.

On to `CCN(c1ccccc1)c1ccc2nc(N)nc(N)c2n1`, for which, in the experiment with MDA-MB-435 cancer cells, the IC50 stood at 78.1 nM.
